Molecular target: Human NK1 Receptor (Homo sapiens, UniProt P25103)
Experiment: In Vitro Human NK1 Receptor Binding Assay ([125I]Bolton-Hunter substance P displacement, IM9 cells)
Details: read-out: IC50 (nM) hNK1, Table 5
Procedure: They have been evaluated in an NK1-receptor binding assay which is described below.
Human lymphoma IM9 cells were grown in RPMI 1640 culture medium supplemented with 10% fetal calf serum and 2 mM glutamine and maintained under an atmosphere of 5% CO2. Cells were passaged every 3-4 days by reseeding to a concentration of 4-8×10^6/40 ml per 175 cm^2 flask. Cells were harvested for experiments by centrifugation at 1000 g for 3 min. Pelleted cells were washed once by resuspension into assay buffer (50 mM Tris HCl pH 7.4, 3 mM MnCl2, 0.02% BSA, […] bacitracin, […] chymostatin, 2 mM phosphoramidon, […] leupeptin) and repeating the centrifugation step before resuspending at a concentration of 2.5×10^6 cells/mL assay buffer. Cells ([…]) were incubated with [^125I]Bolton-Hunter substance P (0.05-0.1 nM) in the presence and absence of varying concentrations of test compounds for 50 min at 21° C. Non-specific binding (10% of the total binding observed under these conditions) was defined by […] [Sar^9, Met(02)^11] substance P. Reactions were terminated by rapid filtration under vacuum onto GF\C filters presoaked in 0.2% PEI for 1-2 h, using a Brandel cell harvester. Filters were washed with 6×1 ml ice-cold Tris HCl (50 mM, pH 7.4) and radioactivity bound determined using a gamma couter. Results were analyzed using iterative curve fitting procedures in RS1 or Graphpad Inplot.

Chains of the proteins cited; added tags and fusions are not shown.
UniProt P25103, whole entry: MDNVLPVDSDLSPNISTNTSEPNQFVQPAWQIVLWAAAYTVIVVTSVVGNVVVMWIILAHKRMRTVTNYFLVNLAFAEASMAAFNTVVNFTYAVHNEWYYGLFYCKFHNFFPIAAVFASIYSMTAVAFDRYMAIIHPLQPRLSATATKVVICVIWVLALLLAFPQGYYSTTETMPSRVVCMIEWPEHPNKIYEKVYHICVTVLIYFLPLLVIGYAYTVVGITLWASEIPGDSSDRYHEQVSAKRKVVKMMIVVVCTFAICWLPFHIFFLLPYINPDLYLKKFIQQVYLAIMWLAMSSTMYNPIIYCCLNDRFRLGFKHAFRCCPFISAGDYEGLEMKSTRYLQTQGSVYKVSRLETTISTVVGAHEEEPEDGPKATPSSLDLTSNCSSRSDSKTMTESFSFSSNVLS

IC50 [nM]	Structure (SMILES)
490	CNS(=O)(=O)c1cc(CNC(Cc2c[nH]c3ccccc23)C(=O)NC(C)c2ccccc2)ccc1Cl (centres unmarked)
> 10000	CC(NC(=O)C(Cc1c[nH]c2ccccc12)NCC=Cc1ccco1)c1ccccc1 (centres unmarked)
